Sequences of proteins named here, by UniProt entry; tags and fusion partners are left off.
UniProt P33261, whole entry: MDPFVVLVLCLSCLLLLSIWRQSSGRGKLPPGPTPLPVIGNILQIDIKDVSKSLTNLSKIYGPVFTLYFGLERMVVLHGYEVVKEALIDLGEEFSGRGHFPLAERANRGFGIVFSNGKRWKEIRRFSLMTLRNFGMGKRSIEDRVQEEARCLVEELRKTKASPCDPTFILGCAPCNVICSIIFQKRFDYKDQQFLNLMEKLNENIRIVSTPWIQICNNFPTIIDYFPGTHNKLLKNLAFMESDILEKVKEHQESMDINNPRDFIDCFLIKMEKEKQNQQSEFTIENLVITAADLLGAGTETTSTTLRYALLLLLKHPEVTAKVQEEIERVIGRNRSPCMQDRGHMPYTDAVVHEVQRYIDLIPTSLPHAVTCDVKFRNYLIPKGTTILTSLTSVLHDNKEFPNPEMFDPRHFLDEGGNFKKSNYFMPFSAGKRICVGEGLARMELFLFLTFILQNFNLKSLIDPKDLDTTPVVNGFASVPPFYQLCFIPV

According to patent US8138178B2, “Cyclic inhibitors of 11beta-hydroxysteroid dehydrogenase 1” (Vitae Pharmaceuticals, Inc., priority 2008, dated 2012):

Target: human recombinant cytochrome P450 2C19 (Homo sapiens, UniProt P33261)
Test: biochemical

Structure (SMILES): COC[C@]1(c2ccccc2)CCN([C@@H](C)c2ccc(-c3ccc(=O)n(C)c3)cc2)C(=O)O1 [Example 77, (R)-6-Methoxymethyl-3-{(S)-1-[4-(1-methyl-6-oxo-1,6-dihydro-pyridin-3-yl)-phenyl]-ethyl}-6-phenyl-[1,3]oxazinan-2-one]
- IC50: 34 µM
